Protein sequences, listed by entry. Tags and fused reporters are not part of them. Residues count along the entry.
UniProt Q6SZW1, 28-724 limits assumed: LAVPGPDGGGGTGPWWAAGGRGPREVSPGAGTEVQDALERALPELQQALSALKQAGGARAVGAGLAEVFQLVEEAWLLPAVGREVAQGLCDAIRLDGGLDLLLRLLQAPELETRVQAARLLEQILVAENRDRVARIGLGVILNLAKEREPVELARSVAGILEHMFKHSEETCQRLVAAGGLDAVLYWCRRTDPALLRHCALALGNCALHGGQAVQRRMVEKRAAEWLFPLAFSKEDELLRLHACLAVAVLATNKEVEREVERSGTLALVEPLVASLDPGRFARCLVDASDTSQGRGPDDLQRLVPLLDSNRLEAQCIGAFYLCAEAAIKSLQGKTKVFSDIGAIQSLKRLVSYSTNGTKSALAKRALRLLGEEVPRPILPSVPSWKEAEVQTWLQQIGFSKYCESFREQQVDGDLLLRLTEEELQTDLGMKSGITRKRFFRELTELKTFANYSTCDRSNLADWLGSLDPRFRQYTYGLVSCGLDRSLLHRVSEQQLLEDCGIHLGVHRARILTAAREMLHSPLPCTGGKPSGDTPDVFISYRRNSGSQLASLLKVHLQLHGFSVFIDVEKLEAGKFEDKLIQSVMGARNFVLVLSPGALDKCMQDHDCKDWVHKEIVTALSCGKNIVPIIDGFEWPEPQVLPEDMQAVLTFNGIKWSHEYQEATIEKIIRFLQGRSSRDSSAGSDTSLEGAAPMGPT

In patent publication EP4782449A1, “TRICYCLIC PYRIDINE COMPOUND ACTING AS SARM1 ENZYME ACTIVITY INHIBITOR, AND USE THEREOF” (Artivila (ShenZhen) Innovation Center, Ltd., priority 2023, dated 2025):

Molecular target: SARM1 (Homo sapiens, UniProt Q6SZW1)
Test: In vitro biochemical assay for inhibiting SARM1 enzyme activity (PC6 fluorescence, NADase)
Conditions: full-length SARM1 from transfected HEK293 cells; 50 µM NAD, 50 µM PC6, 50 µM NMN activator; room temperature, 30 minutes

O=C1C(Cc2ccc(F)c(F)c2)CCN1c1ccc2c(c1)COc1cnccc1-2 (stereo not shown)
IC50: 100 to 1000 nM
